Results from patent US20210214434A1.

Chains of the proteins cited; added tags and fusions are not shown. Residues count along the entry.
UniProt P55899, 24-365, chain 1 of 2: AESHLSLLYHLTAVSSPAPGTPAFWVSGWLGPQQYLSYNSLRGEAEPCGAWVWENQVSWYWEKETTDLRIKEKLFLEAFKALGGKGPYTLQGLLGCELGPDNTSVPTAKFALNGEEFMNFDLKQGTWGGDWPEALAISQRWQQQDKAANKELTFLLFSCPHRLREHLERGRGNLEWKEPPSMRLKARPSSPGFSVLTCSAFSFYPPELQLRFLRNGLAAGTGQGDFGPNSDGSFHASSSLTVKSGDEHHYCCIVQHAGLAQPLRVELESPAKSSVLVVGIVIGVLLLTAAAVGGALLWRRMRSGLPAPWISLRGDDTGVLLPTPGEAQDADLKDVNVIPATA

Tests used:
[1] = biological target: human CD64 receptor expressed by Jurkat cells (Jurkat-CD64) (human) (UniProt P12314); assay: cell-based or functional assay
[2] = biological target: Fc receptors on the surface of the effector cells; assay: cell-based or functional assay
[3] = biological target: human CD16aH receptor on transfected Jurkat cells (Jurkat-CD16aH) (human) (UniProt P08637); assay: flow cytometry competition on Jurkat-CD16aH cells, displacement of mAb 3G8-PE (0.5 µg/ml)
[4] = biological target: human CD64 receptor expressed by Jurkat cells (Jurkat-CD64) (human) (UniProt P12314); assay: flow cytometry competition on Jurkat-CD64 cells, displacement of Rituxan-A488 (25 µg/ml)
[5] = biological target: HisTag hCD16aV receptor (R&D System) (human) (UniProt P08637); assay: BLI (Octet), HisTag hCD16aV on anti-Penta-HIS biosensors, 1/1 model; SD 72.7
[6] = biological target: human FcRn receptor expressed by Jurkat cells (Jurkat-FcRn) (human) (UniProt P55899); assay: flow cytometry competition on Jurkat-FcRn cells, displacement of Rituxan-A488 (25 µg/ml), pH 6

Inhibition of the secretion of IL-2 of the Jurkat cells transfected with CD64 (IC 25%, nM) [1]: 926 nM
Inhibition of the secretion of IL-2 of the Jurkat cells transfected with CD64 (IC 50%, nM) [1]: < 1950 nM
Inhibition of the lysis of the red blood cells medited by the anti-D AD1 (IC 25%, nM) [2]: 82 nM
Inhibition of the lysis of the red blood cells medited by the anti-D AD1 (IC 50%, nM) [2]: 1500 nM
IC50 [3]: 282 nM
IC50 [4]: 176 nM
Kd [5]: 314 nM
IC50 [6]: 476 nM
Substance: wild-type Fc fragment Fc-WT or Fc-Rec, obtained by digesting with papain an IgG1 produced in transgenic goat milk (from UniProt P01857 108-330)
